Results taken from patent EP1120414A1, “DISUBSTITUTED MALEIMIDE COMPOUNDS AND MEDICINAL UTILIZATION THEREOF” (Japan Tobacco Inc., priority 1998, dated 2000).

Protein sequences, listed by entry. Tags and fused reporters are not part of them. Residues count along the entry.
UniProt P05771, 1-673 isoform 2: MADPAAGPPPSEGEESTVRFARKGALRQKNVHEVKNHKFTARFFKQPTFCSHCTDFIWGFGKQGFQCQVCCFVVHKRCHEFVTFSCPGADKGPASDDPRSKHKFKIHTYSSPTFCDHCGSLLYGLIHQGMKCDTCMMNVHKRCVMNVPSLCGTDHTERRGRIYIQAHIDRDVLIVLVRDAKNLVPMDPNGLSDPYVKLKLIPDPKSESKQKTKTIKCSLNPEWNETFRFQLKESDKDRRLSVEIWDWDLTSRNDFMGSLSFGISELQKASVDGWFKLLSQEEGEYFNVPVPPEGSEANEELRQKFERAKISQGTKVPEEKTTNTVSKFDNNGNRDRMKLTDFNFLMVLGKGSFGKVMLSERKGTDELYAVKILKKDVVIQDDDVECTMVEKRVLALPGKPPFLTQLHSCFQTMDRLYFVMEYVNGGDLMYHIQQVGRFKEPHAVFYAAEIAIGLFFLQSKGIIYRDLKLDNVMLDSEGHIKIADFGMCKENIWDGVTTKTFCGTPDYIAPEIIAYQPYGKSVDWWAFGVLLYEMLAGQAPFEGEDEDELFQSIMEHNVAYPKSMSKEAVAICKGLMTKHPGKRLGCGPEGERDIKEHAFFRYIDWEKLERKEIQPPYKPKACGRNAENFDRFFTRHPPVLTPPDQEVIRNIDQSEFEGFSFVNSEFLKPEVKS

Key:
[1] = molecular target: PKC α (Homo sapiens, UniProt P17252); test: PKC enzyme assay (BIOTRAK Protein kinase C enzyme assay system, 32P-ATP phosphorylation of peptide […]); type: biochemical; details: read-out: Inhibition of PKC activity IC50 PKC α, Human Recombinant, test substance 1 nM-10 µM, 37°C, 15 minutes
[2] = molecular target: PKC β II (Homo sapiens, UniProt P05771); test: as above; type: biochemical; details: for Ratio α/β: IC50 PKC α / IC50 PKC β II; for IC50: read-out: Inhibition of PKC activity IC50 PKC β II, Protein Kinase C, Human Recombinant, test substance 1 nM-10 µM, 37°C, 15 minutes

`O=C1NC(=O)C(c2c3n(c4ccccc24)CC[C@H](CO)C3)=C1Nc1ccccc1` was tested, and the IC50 [1] was 394 nM and the “Ratio α/β” value [2] was 66.

In the case of `O=C1NC(=O)C(c2c3n(c4ccccc24)CC(CN2CCCCC2)C3)=C1Nc1ccccc1` (stereo not shown), the IC50 [1] is reported as 795 nM, the “Ratio α/β” value [2] is reported as 72 and the IC50 [2] is reported as 11 nM.

In the case of `CN1CCN(CC2CCc3c(C4=C(Nc5ccccc5)C(=O)NC4=O)c4ccccc4n3C2)CC1` (stereo not shown), the IC50 [1] is reported as 2600 nM, the “Ratio α/β” value [2] is reported as 113 and the IC50 [2] is reported as 23 nM.

For `CCN(CC)C[C@H]1CCn2c(c(C3=C(Nc4ccccc4)C(=O)NC3=O)c3ccccc32)C1`, the IC50 [1] was 910 nM, the “Ratio α/β” value [2] was 114 and the IC50 [2] was 8 nM.

With `O=C1NC(=O)C(c2c3n(c4ccccc24)CC(CN2CCC(O)CC2)CC3)=C1Nc1ccccc1` (stereo not shown) the IC50 [1] was 497 nM, the “Ratio α/β” value [2] was 83 and the IC50 [2] was 6 nM.

With `O=C1NC(=O)C(c2c3n(c4ccccc24)CC[C@H](Cn2ccnc2)C3)=C1Nc1ccccc1` the IC50 [1] was 725 nM and the IC50 [2] was 9 nM.

`O=C1NC(=O)C(c2c3n(c4ccccc24)CC[C@@H](CO)C3)=C1Nc1ccccc1` was tested, and the IC50 [1] was 2130 nM and the “Ratio α/β” value [2] was 125.

With `CN(C)CC1CCCn2c(c(C3=C(Nc4ccccc4)C(=O)NC3=O)c3ccccc32)C1` (stereo not shown) the IC50 [1] was over 10000 nM, the “Ratio α/β” value [2] was 147 and the IC50 [2] was 68 nM.

For `O=C1NC(=O)C(c2c3n(c4ccccc24)CC[C@H](CO)C3)=C1Nc1ccc(O)cc1`, the IC50 [1] was 2100 nM, the “Ratio α/β” value [2] was 84 and the IC50 [2] was 25 nM.

For `O=C1NC(=O)C(c2c3n(c4ccccc24)CC(CN2CCCC2)CC3)=C1Nc1ccccc1` (stereo not shown), the IC50 [1] was 355 nM, the “Ratio α/β” value [2] was 118 and the IC50 [2] was 3 nM.

In the case of `O=C1NC(=O)C(c2c3n(c4ccccc24)CC[C@H](CN2CCCC2)C3)=C1Nc1ccccc1`, the IC50 [1] is reported as 170 nM, the “Ratio α/β” value [2] is reported as 57 and the IC50 [2] is reported as 3 nM.

`CCNCC1CCc2c(C3=C(Nc4ccccc4)C(=O)NC3=O)c3ccccc3n2C1` (stereo not shown) was tested, and the IC50 [1] was 113 nM, the “Ratio α/β” value [2] was 33 and the IC50 [2] was 3 nM.

For `NC(=O)C1CCN(CC2Cc3c(C4=C(Nc5ccccc5)C(=O)NC4=O)c4ccccc4n3C2)CC1` (stereo not shown), the IC50 [1] was 1220 nM, the “Ratio α/β” value [2] was 77 and the IC50 [2] was 16 nM.

`CN(C)C[C@H]1CCn2c(c(C3=C(Nc4ccccc4)C(=O)NC3=O)c3ccccc32)C1` was tested, and the IC50 [1] was 96 nM and the “Ratio α/β” value [2] was 48.

`O=C1NC(=O)C(c2c3n(c4ccccc24)CC[C@H](CN2CCCCC2)C3)=C1Nc1ccccc1` was tested, and the IC50 [1] was 275 nM, the “Ratio α/β” value [2] was 69 and the IC50 [2] was 4 nM.

With `NC(=O)C1CCN(C[C@H]2CCn3c(c(C4=C(Nc5ccccc5)C(=O)NC4=O)c4ccccc43)C2)CC1` the IC50 [1] was 247 nM, the “Ratio α/β” value [2] was 62 and the IC50 [2] was 4 nM.

For `O=C1NC(=O)C(c2c3n(c4ccccc24)CC(Cn2cccn2)CC3)=C1Nc1ccccc1` (stereo not shown), the IC50 [1] was 5740 nM, the “Ratio α/β” value [2] was 103 and the IC50 [2] was 56 nM.

`O=C1NC(=O)C(c2c3n(c4ccccc24)CC(CN2CCSCC2)CC3)=C1Nc1ccccc1` (stereo not shown) was tested, and the IC50 [1] was 1930 nM, the “Ratio α/β” value [2] was 138 and the IC50 [2] was 14 nM.

`O=C1NC(=O)C(c2c3n(c4ccccc24)CC[C@H](CO)C3)=C1Nc1cccc(F)c1` was tested, and the IC50 [1] was 680 nM, the “Ratio α/β” value [2] was 49 and the IC50 [2] was 14 nM.

In the case of `O=C1NC(=O)C(c2c3n(c4ccccc24)CC[C@H](CN2CCC(O)CC2)C3)=C1Nc1ccccc1`, the IC50 [1] is reported as 265 nM, the “Ratio α/β” value [2] is reported as 53 and the IC50 [2] is reported as 5 nM.

`O=C1NC(=O)C(c2c3n(c4ccccc24)CC[C@H](CO)C3)=C1Nc1cccc(Cl)c1` was tested, and the IC50 [1] was 1910 nM, the “Ratio α/β” value [2] was 83 and the IC50 [2] was 23 nM.

In the case of `O=C1NC(=O)C(c2c3n(c4ccccc24)CCCC(CO)C3)=C1Nc1ccccc1` (stereo not shown), the IC50 [1] is reported as 4000 nM, the “Ratio α/β” value [2] is reported as 174 and the IC50 [2] is reported as 23 nM.

For `O=C1NC(=O)C(c2c3n(c4ccccc24)CC[C@H](CO)C3)=C1Nc1ccc(F)cc1`, the IC50 [1] was 1450 nM, the “Ratio α/β” value [2] was 97 and the IC50 [2] was 15 nM.

For `CNCC1CCc2c(C3=C(Nc4ccccc4)C(=O)NC3=O)c3ccccc3n2C1` (stereo not shown), the IC50 [1] was 91 nM, the “Ratio α/β” value [2] was 43 and the IC50 [2] was 2 nM.

`CN(C)C[C@@H]1CCn2c(c(C3=C(Nc4ccccc4)C(=O)NC3=O)c3ccccc32)C1` was tested, and the IC50 [1] was 3060 nM and the “Ratio α/β” value [2] was 122.
